Experimental data published in publication PMC3880566.

Biological target: GAL4 DNA-binding domain fusion of human AR-481-919 (pBDGAL4CAM-481–919) (human)
Assay: two-hybrid

fold over the increase in β-galactosidase activity without CKβBP2/CRIF1: 4 fold
fold β-galactosidase activity over background (with DHT): 8 fold
Substance: GAL4 activation domain fusion of CKβBP2/CRIF1 (HeLa cDNA clone in pGAD-GH) (from UniProt Q8TAE8 7-222) (natural protein)
